System: VentX
Test: VentX expression during cytokine-induced monocyte to macrophage differentiation (RT-PCR, western blot)
Assay type: cell-based, human
Conditions: monocytes cultured with cytokine at 100 ng/ml (FIG. 1B)
Description: (A) VentX expression in circulating monocytes. Monocytes were magnetically isolated by anti-CD14 beads from peripheral blood of healthy adult donors. Total RNA was extracted and RT-PCR analysis of VentX mRNA level was conducted as described in Materials and Methods. (B) VentX expression during monocyte to macrophage differentiation in vitro. Monocytes were cultured in the presence of M-CSF (M), GM-CSF (GM) or IL3 for indicated days or in the absence of cytokines for 3 days. Upper panel, VentX mRNA levels were determined by RT-PCR; lower panel, VentX protein levels were determined by western blot analysis, using VentX specific antibodies. […] Cell lysates were then obtained and luciferase activities measured. […] The VentX mRNA levels were determined by quantitative PCR for up to 7 days.
Peripheral blood mononuclear cells (PBMC) from healthy adult donors at Children's Hospital Boston were isolated by Ficoll density gradient centrifugation. […] The purity of freshly isolated CD14^+ monocytes was more than 95% as analyzed by flow cytometry. […]
Total RNA was isolated by the TRIzol reagent, and an equal amount of RNA was used for first-strand cDNA synthesis with SuperScript III First-Strand Synthesis System (Invitrogen) according to the manufacturer's protocol. […] Quantitative measurement of VentX and cytokines cDNA were performed with SYBR Green on a LightCycler® (480 Real-Time PCR System; Roche). […]

B1: IL3: cytokine purchased from PeproTech, induces monocyte to macrophage differentiation (protein, UniProt P08700 20-152, looked up)
Interleukin-3: APMTQTTPLKTSWVNCSNMIDEIITHLKQPPLPLLDFNNLNGEDQDILMENNLRRPNLEAFNRAVKSLQNASAIESILKNLLPCLPLATAAPTRHPIHIKDGDWNEFRRKLTFYLKTLENAQAQQTTLSLAIF
For B1, the “VentX expression during monocyte to macrophage differentiation” value was “up-regulated”.
